Values of other authors in patent publication US9132099B2, “Medical implants and methods for regulating the tissue response to vascular closure devices” (Vascular Therapies LLC, priority 2001, dated 2015).

Conditions: collagen saturated at 3 μg/g, implanted into muscle tissue, Mehta et al.; cited from earlier work

gentamicin
delivery of antibiotic into blood through day: 28 days
